Results reported in ChEMBL document CHEMBL4354824, “4-Aryl-1-oxa-4,9-diazaspiro[5.5]undecane Derivatives as Dual μ-Opioid Receptor Agonists and σ1 Receptor Antagonists for the Treatment of Pain” (J Med Chem, 2020).

Sequences of proteins named here, by UniProt entry; tags and fusion partners are left off.
UniProt P35372, whole entry, looked up: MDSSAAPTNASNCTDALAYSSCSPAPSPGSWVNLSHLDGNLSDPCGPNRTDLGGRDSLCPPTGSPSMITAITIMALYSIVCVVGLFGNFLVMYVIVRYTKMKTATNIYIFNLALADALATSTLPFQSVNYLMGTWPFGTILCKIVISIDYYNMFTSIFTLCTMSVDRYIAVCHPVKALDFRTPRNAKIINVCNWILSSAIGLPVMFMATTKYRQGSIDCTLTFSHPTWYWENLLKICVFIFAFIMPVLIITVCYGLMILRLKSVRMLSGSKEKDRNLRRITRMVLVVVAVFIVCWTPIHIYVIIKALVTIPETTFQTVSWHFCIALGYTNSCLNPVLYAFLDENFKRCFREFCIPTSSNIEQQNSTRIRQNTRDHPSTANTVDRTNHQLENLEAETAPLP
UniProt Q99720, whole entry, looked up: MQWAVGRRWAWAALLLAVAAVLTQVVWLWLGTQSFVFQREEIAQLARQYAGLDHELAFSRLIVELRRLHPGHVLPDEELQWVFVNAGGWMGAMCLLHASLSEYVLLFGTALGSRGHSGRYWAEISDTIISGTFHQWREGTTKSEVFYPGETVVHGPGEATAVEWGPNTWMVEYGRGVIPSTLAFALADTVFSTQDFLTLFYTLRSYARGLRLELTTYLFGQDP

Tests used:
[1] = target: T1, Mu-type opioid receptor (Homo sapiens, UniProt P35372)
[2] = target: T1, Mu-type opioid receptor; experiment: Agonist activity at human MOR expressed in CHOK1 cells assessed as […] of cAMP accumulation incubated for 45 mins by HTRF assay
[3] = target: Sigma non-opioid intracellular receptor 1 (Homo sapiens, UniProt Q99720); settings: hek293

Q: How did the Ki [1] turn out when `O=C1COC2(CCN(CCc3ccccc3)CC2)CN1c1ccccc1` was run?
A: Its Ki is 437 nM.

Q: And the EC50 [2]?
A: Its EC50 is 523 nM.

Q: And the Ki [3]?
A: The Ki was 57 nM.
